Values quoted from earlier work as cited in article PMC9094701, “Multiple-Allele MHC Class II Epitope Engineering by a Molecular Dynamics-Based Evolution Protocol” (Frontiers in Immunology, 2022).

Legend:
DRB1*01:01 = DRB1*01:01 (Homo sapiens, UniProt P01903+P01911, A100R/D57E/F55L/F60I/F76Y/I96L/L162R/M171V/P40L/Q125E/R42F/V115G/Y59C); conditions: DRB1*01:01, from IEDB; cited from earlier work
DRB1*04:01 = DRB1*04:01 (Homo sapiens, UniProt P01903+P01911, A100K/A169T/F76Y/I96L/K127E/L162R/M171V/N62H/P40V/Q125Y/R42H/S133A/S149N/S66Y/V115G/V209L/W38E); conditions: DRB1*04:01, from IEDB; cited from earlier work
From the text: (§1) A mySQL version of the database was downloaded and accessed using 15-mer peptides with reported IC 50 values as queries.

DRB1*15:01 = DRB1*15:01 (Homo sapiens, UniProt P01903+P01911); conditions: DRB1*15:01, from IEDB; cited from earlier work
From the text: as §1

**Q.** Which IC50 (DRB1*01:01) does the source give for DYDVVYLKPLAGMYK here?
**A.** The IC50 was 1 nM.

**Q.** What about the IC50 (DRB1*04:01) of the same sequence?
**A.** The IC50 was 1640 nM.

**Q.** And the IC50 (DRB1*15:01)?
**A.** Its IC50 is 793 nM.
